Experimental data reported in US20140093459A1, “NOVEL COMPOUND” (DSM IP ASSETS B.V., priority 2009, published 2014).

Columns and labels:
[1] = e.g. C12-15 alkyl benzoate, diisopropyl sebacate or dibutyl adipate; typical value; cited from earlier work
[2] = Comparative: solubility of BMDBM in 1:1 (w/w) mixture of C12-15 alkyl benzoate and a polymeric or solid UV-filter (HPLC after 1 month at RT); conditions: solvent alone, baseline repeated under each UV-filter column
[3] = Reduction of solvent necessary to dissolve solid UV-filter; assay type: physicochemical
[4] = Solubility of BMDBM or BEMT in C12-15 alkyl benzoate (saturation, HPLC of supernatant); assay type: physicochemical

Substance: butyl methoxydibenzoylmethane [BMDBM]
- solubility in the conventional cosmetic oils [1]: less than 20%
- Solubility of BMDBM in C12-15 alkyl benzoate [2]: 14 wt.-%
- amount of C12-15 alkyl benzoate necessary to solubilize 0.5 g BMDBM ([3]; C12-15 alkyl benzoate alone): 3.0 g
- amount of diisopropyl sebacate necessary to solubilize 0.5 g BMDBM ([3]; diisopropyl sebacate alone): 2.0 g
- Solubility in C12-15 alkyl benzoate ([4]; C12-15 alkyl benzoate alone (summary table)): 14 wt.-%
- solubility in the cosmetic solvent C12-15 alkyl benzoate ([4]; C12-15 alkyl benzoate alone, saturation, HPLC of supernatant): 14 wt.-%
